# UUG fidelity – yeast start codon fidelity modulation; activity score, % at 18.7 µM; actives 0.13% (n = 350,000); S. cerevisiae UUG-firefly luciferase reporter, luminescence/redox ratio; AID 602363;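 active means replicate mean at a twofold rise or more, about +100% in these data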;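 further: firefly luciferase made from a UUG start codon reports start codon fidelity; reporter light over untreated wells divided by growth signal over untreated wells; some hits fall short of that in this replicate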
# CAL PDZ FP-1 – blocks peptide binding to the human CAL PDZ domain; purified CAL PDZ, TMR-peptide fluorescence polarization, 1 h; inhibition, % at 24.9 µM; actives 0.92% (n = 300,000); AID 602252;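 active = mean inhibition of at least 30% with at least half of replicates also reaching 30%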;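 note: 0% = DMSO neutral control and 100% = excess unlabeled competitor peptide PRC23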
# PglD inh – blocks C. jejuni PglD acetyltransferase activity; AID 602405; purified PglD enzyme, DTNB colorimetric CoA detection; inhibition, % at 12.5 µM; actives 0.098% (n = 360,000); in the data active = inhibition above about 16%, passing the limit was not always enough
# Vif imaging – blocks HIV Vif function; actives 0.35% (n = 340,000); HEK293T cells, Vif self-association by quenched fluorescence, imaging, 24 h; inhibition, % at 7.49 µM; in the data active = inhibition above about 50%, passing the limit was not always enough
# CAL PDZ FP-2 – inhibitors of human CAL PDZ peptide binding. Q9HD26. purified CAL PDZ, TMR-peptide fluorescence polarization, 1 h. inhibition, % at 20 µM. actives 0.02% (n = 330,000). AID 504414;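 active = highest replicate inhibition of at least 40%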;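 note: plate controls were DMSO neutral control wells for no effect and unlabeled competitor peptide control wells for full effect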
#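 material = purified tagged CAL PDZ domain construct (CerCALP) | compound dosing = 20 µM, one dose | times = 1 h at RT | measured by = fluorescence polarization from S- and P-plane intensities, G-factor corrected | read-out = inhibition from polarization loss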
# ARNT TACC3 PPI – ARNT/TACC3 interaction disruption. AlphaScreen His-ARNT PAS-B/GST-TACC3 binding, luminescence; TACC3 fragment carries E629A point mutation. inhibition, % at 9.99 µM. Q9Y6A5. actives 0.66% (n = 390,000);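 active = mean inhibition of replicates at least 50% and at least half of replicates each reaching 50%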;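 note: 0% = complete ARNT plus TACC3 wells and 100% = ARNT alone without TACC3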
# * hit, by the source's call; · = not tested or not shown. Shown are actives, neighbours in structure and some others; about 1.6% of the full set was active somewhere.
# Abbreviations: A = UUG fidelity; B = CAL PDZ FP-1; C = PglD inh; D = Vif imaging; E = CAL PDZ FP-2; F = ARNT TACC3 PPI
O=C(N[C@H]1CC[C@H](CCNS(=O)(=O)c2ccc(F)cc2)O[C@H]1CO)c1ccccn1
  A: -3.8 | B: · | C: 2.3 | D: · | E: · | F: -13.2
C(=N\Nc1nn[nH]n1)/c1ccccc1
  A: -4.3 | B: -1.1 | C: -1.7 | D: -15.6 | E: 0.5 | F: 7.6
O=[N+]([O-])c1ccc(O)c(/C=N/NC2=NS(=O)(=O)c3ccccc32)c1
  A: · | B: -1.9 | C: · | D: 3.2 | E: -2.5 | F: 70.6*
Cc1cc(C)n(-c2ccc([N+](=O)[O-])cc2-c2nn[nH]n2)n1
  A: · | B: 1.7 | C: · | D: · | E: -3.6 | F: -5.5
Oc1cccc(/C=N/Nc2ccc(Cl)nn2)c1
  A: -21.9 | B: -2.4 | C: 8.0 | D: -15.0 | E: -1.4 | F: 14.2
O=[N+]([O-])c1ccc(/C=N/NC2=NS(=O)(=O)c3ccccc32)cc1
  A: -7.2 | B: 3.8 | C: 1.6 | D: 0.9 | E: -0.7 | F: 3.0
O=[N+]([O-])c1ccc(O)c(-c2nn[nH]n2)c1
  A: -25.5 | B: -3.0 | C: 7.9 | D: 4.7 | E: -0.7 | F: 63.5*
Oc1ccccc1/C=N/Nc1nn[nH]n1
  A: · | B: -4.4 | C: · | D: -0.7 | E: 0.9 | F: 71.9*
O=[N+]([O-])c1ccc(O)c(/C=N/Nc2ccc(Cl)nn2)c1
  A: -26.2 | B: -3.4 | C: -1.8 | D: -1.5 | E: -3.5 | F: 58.3*
COc1ccc(CN(C)C[C@@H]2Oc3ccc(NS(=O)(=O)c4ccccc4)cc3CC(=O)N([C@H](C)CO)C[C@H]2C)cc1
  A: 8.8 | B: · | C: 5.0 | D: · | E: · | F: 20.8
O=[N+]([O-])c1ccc(O)c(/C=N/Nc2nn[nH]n2)c1
  A: -10.6 | B: -5.0 | C: 0.0 | D: 25.5 | E: 0.4 | F: 66.5*
NC(N)=N/N=C/c1cc([N+](=O)[O-])ccc1O
  A: -32.2 | B: -2.4 | C: 4.5 | D: -1.6 | E: 0.2 | F: 6.6
O=S1(=O)N=C(N/N=C/c2cccs2)c2ccccc21
  A: -28.1 | B: · | C: 2.7 | D: -0.3 | E: -0.8 | F: 65.5*
Cn1cnc(S(=O)(=O)N[C@@H]2C=C[C@H](CC(=O)Nc3ccccc3)O[C@@H]2CO)c1
  A: -8.7 | B: · | C: 1.0 | D: · | E: · | F: -4.7
Cc1noc(C)c1NC(=O)N(C)C[C@H]1Oc2ccc(NS(C)(=O)=O)cc2CC(=O)N([C@H](C)CO)C[C@@H]1C
  A: 26.1 | B: · | C: 3.4 | D: · | E: · | F: -5.7
CCCN(CC(=O)Nc1ccccc1C)C(=O)c1sc2ccccc2c1Cl
  A: -19.4 | B: 60.7* | C: -1.9 | D: -2.8 | E: -0.1 | F: -0.9
Cc1ccccc1NC(=O)COC(=O)CNC(=O)c1sc2ccccc2c1Cl
  A: · | B: 1.8 | C: · | D: 3.7 | E: -1.3 | F: -2.0
COc1ccc(NC(=O)CNC(=O)C2CCCCC2)cc1
  A: -20.3 | B: 52.6* | C: -0.6 | D: 2.5 | E: 0.8 | F: -1.9
COc1ccc(CN(C(=O)c2ccco2)c2ccc(C)c(C)c2)cc1
  A: -30.2 | B: 30.9* | C: -3.8 | D: -10.6 | E: -0.2 | F: 5.5
CCOc1ccc(N(Cc2ccc(OC)cc2)C(=O)c2ccco2)cc1
  A: · | B: -0.5 | C: · | D: -20.1 | E: -1.2 | F: 2.1
Cc1ccc2nc(-c3ccc(NC(=S)NCCC(C)C)cc3)sc2c1
  A: -40.1 | B: active | C: -5.4 | D: · | E: -1.7 | F: -2.8
C=CCc1ccc(OCCn2nnc3ccccc32)c(OC)c1
  A: -8.9 | B: 94.9* | C: 2.0 | D: -15.4 | E: -2.5 | F: -6.6
COc1cccc(NC(=O)CCC(=O)Nc2cccc(OC)c2)c1
  A: -12.1 | B: -2.6 | C: 6.6 | D: -7.8 | E: -0.3 | F: -3.6
CCOCC(=O)Nc1cccc(OC)c1
  A: -15.5 | B: 66.4* | C: · | D: 8.1 | E: -0.6 | F: 1.3
COc1ccc(NC(=O)CN(C)CC(=O)Nc2ccc(Cl)c(S(=O)(=O)N(C)C)c2)cc1
  A: -12.4 | B: 39.9* | C: -0.6 | D: -1.5 | E: -0.9 | F: 3.6

# Carrying on.
# Abbreviations: A = UUG fidelity; B = CAL PDZ FP-1; C = PglD inh; D = Vif imaging; E = CAL PDZ FP-2; F = ARNT TACC3 PPI
COc1cccc(NC(=O)CN(C)CC(=O)Nc2ccc(Br)cc2)c1
  A: · | B: 47.2* | C: · | D: 3.7 | E: -1.6 | F: -15.6
COc1cccc(NC(=O)CN(C)CC(=O)Nc2cccc(C(F)(F)F)c2)c1
  A: 4.9 | B: -18.0 | C: -6.2 | D: 2.7 | E: -1.2 | F: -6.5
Cc1cccc(-n2nc(C)c3c2NC2=C(C(=O)CCC2)C3c2ccccn2)c1 (stereo not drawn)
  A: -12.2 | B: 79.2* | C: 0.3 | D: 7.9 | E: · | F: 3.0
CC(=O)N1[C@@H]2c3ccc(-c4ccc(F)cc4)c(=O)n3C[C@H]1[C@H](CO)[C@H]2C(=O)N(C)C
  A: · | B: · | C: 0.5 | D: · | E: · | F: -4.5
CC(C)NC(=O)Nc1ccc2c(c1)C(=O)N([C@H](C)CO)C[C@H](C)[C@@H](CN(C)S(=O)(=O)c1ccc(F)cc1)OCCCC[C@@H](C)O2
  A: -2.6 | B: · | C: -0.5 | D: · | E: · | F: -3.6
C[C@@H]1CN([C@H](C)CO)C(=O)c2cc(C3=CCCC3)cnc2O[C@H]1CN(C)Cc1ccccn1
  A: -30.4 | B: · | C: 1.4 | D: · | E: · | F: -2.1

# Compounds listed so far containing a furan ring, fused or not:
# Abbreviations: A = UUG fidelity; B = CAL PDZ FP-1; C = PglD inh; D = Vif imaging; E = CAL PDZ FP-2; F = ARNT TACC3 PPI
COc1ccc(CN(C(=O)c2ccco2)c2ccc(C)c(C)c2)cc1
  A: -30.2 | B: 30.9* | C: -3.8 | D: -10.6 | E: -0.2 | F: 5.5
CCOc1ccc(N(Cc2ccc(OC)cc2)C(=O)c2ccco2)cc1
  A: · | B: -0.5 | C: · | D: -20.1 | E: -1.2 | F: 2.1
